In patent US9120780B2, “Indole or indazole derivative or salt thereof” (TAIHO PHARMACEUTICAL CO., LTD., priority 2011, dated 2015) one finds IC50 data, which are given here for one molecule.

One assay relates to SK-BR-3 cells. The experiment in a line: Measurement of cell growth inhibition (crystal violet staining). As to conditions: Homo sapiens, SK-BR-3, 72 h, read-out: Cell growth inhibition IC50. The format is cell-based. On the procedure:
Cell growth was measured by a crystal violet staining method. […] The cells were cultured in a 5% CO2 incubator at 37° C. for 24 hours, and then test substances were added to the plate, followed by culturing for further 72 hours. […] The plate was left to stand at room temperature for 20 minutes for staining the cells. The plate was washed with water and dried, and 100 μL of a mixed solution of 0.05 M NaH2PO4 and ethanol (mixture in equal amounts) was added to each well. The absorbance at 540 nm was measured with a microplate reader (MTP-450, Corona Electric Co., Ltd.) as an index of the number of cells in each well. The inhibition rate (%) of cell growth by a compound of the present invention was determined by the following equation using the absorbance of a drug-untreated group (control) as a control. […] Inhibition rate (%)=(C−T)/C×100 T: absorbance in a well to which a test substance was added C: absorbance in a well to which no test substance was added

Assay [1] has as its target human HSP90 alpha protein (N-terminal, amino acids 2-236) (Homo sapiens (Human), UniProt P07900). Briefly: Measurement of HSP90-binding activity (AlphaScreen competitive assay, biotin-labeled geldanamycin). The conditions noted are these: read-out: HSP-binding activity IC50. On the procedure:
First, a solution of purified HSP90 was prepared as follows. […] The pET-HSP90N was introduced into Escherichia coli cells (BL21 (DE3), Stratagene Inc.), and then the Escherichia coli cells were cultured in the presence of 0.5 mM isopropyl-beta-D-thiogalactopyranoside (Sigma-Aldrich Corp.) at 37° C. for 4 hours. The Escherichia coli cells were collected, suspended in a lysis buffer (50 mM Tris-HCl (pH 7.5), 200 mM NaCl), and sonicated. The sonicated cell solution was centrifuged (40,000×g, 20 minutes) to obtain supernatant as a crude extract. The crude extract was fractionated by Ni Sepharose High Performance (GE Healthcare Japan Corporation) chromatography and HiLoad 26/60 Superdex 75 pg (GE Healthcare Japan Corporation), and the fraction in which HSP90 protein was concentrated was prepared so as to be a 50 mM Tris-HCl (pH 7.5)/20% glycerol solution as a purified HSP90 solution. […]
The HSP90-binding activity was measured by an AlphaScreen competitive assay system. […] After reaction in a dark place at room temperature for 1 hour, the fluorescence intensity in each well was measured with a multilabel plate reader, EnVision (Perkin Elmer, Inc.). The inhibition rate (%) of biotin-labeled geldanamycin binding by a compound of the present invention was determined by the following equation using the fluorescence signal of a test substance-free group (control) as a control. […]
(In general: Bead proximity is the source of the signal in Alpha formats.)

On to `CCCc1cn(-c2ccc(C(N)=O)c(NC(C)(C)C)c2)c2cccc(-n3cnc(-c4cnn(C)c4)c3)c12` [Example 50, 2-(Tert-buylamino)-4-{4-(4-(1-methyl-1H-pyrazolo-4-yl)-1H-imidazolo-1-yl)-3-propyl-1H-indol-1-yl}benzamide], for which the IC50 in the assay on SK-BR-3 cells stood at 10 nM; in assay [1] it was 250 nM.

By IC50 is commonly meant the point on the concentration scale where inhibition reaches its midpoint.
